# How the values were obtained:
# [1] = target: IL-12 receptor endogenously expressed on THP-1 cells (UniProt P42701); assay: FACS, hybridoma supernatant, THP-1
# [2] = target: cyno IL-12RB2 overexpressed on 293T cells (Example 2) (cyno); assay: FACS, hybridoma supernatant, 293T
# [3] = target: human IL-12RB2 overexpressed on 293T cells (Example 2) (human) (UniProt Q99665); assay: FACS, hybridoma supernatant, 293T
substance,measurement,setting,value
85802_10D03 (antibody),Fold over buffer,[1],24 fold
same,Fold over parental 293T,[2],6 fold
same,Fold over parental 293T,[3],3.4 fold

# — patent publication US20250019450A1
